Measurements published in patent US20110243958A1, “ANTIMICROBIAL AGENTS THAT TARGET BACTERIAL VKOR” (priority 2008, published 2011).

Tested on: M. smegmatis
Test: microbe, parasite or virus in culture
Assay type: cell-based, Mycobacterium smegmatis
Details: Mycolicibacterium smegmatis, M. smegmatis grown in NZ-glucose (rich medium); alamar blue assay; read-out: minimal inhibitory concentration

SMILES: CC(=O)CC(c1ccccc1)c1c(O)c2ccccc2oc1=O (stereo not shown) [warfarin]
- MIC: 2250 µM (≈ 694 µg/mL)

≈ marks a conversion by molar mass, not a printed value.
